Values of other authors as cited in patent US5750534A (priority 1996, dated 1998).
Where two headings read alike, the source gives them in different places.

How the values were obtained:
kappa receptor = conditions: cited from earlier work
mu receptor = conditions: cited from earlier work

## Oc1ccc2c3c1O[C@H]1[C@@H](O)CC[C@@]4(O)[C@@H](C2)N(CC2CCC2)CC[C@]314 [nalbuphine]
Kappa receptor
  action on kappa receptor: agonist
Kappa receptor; listed as Nalbuphine
  action on kappa receptor: kappa-receptor agonist
Mu receptor
  action on mu receptor: antagonist
Mu receptor; listed as Nalbuphine
  action on mu receptor: mu-receptor antagonist
